Our source for the IC50 values is patent US20260355192A1, “PROPHYLACTIC OR THERAPEUTIC AGENT FOR PERIOSTIN-MEDIATED DISEASE AND PRURITUS ASSOCIATED THEREWITH” (SAGA UNIVERSITY, priority 2022, published 2026).

By UniProt entry, the sequences of proteins in these tests, tags left out. Residues count along the entry.
UniProt P05106, 27-788: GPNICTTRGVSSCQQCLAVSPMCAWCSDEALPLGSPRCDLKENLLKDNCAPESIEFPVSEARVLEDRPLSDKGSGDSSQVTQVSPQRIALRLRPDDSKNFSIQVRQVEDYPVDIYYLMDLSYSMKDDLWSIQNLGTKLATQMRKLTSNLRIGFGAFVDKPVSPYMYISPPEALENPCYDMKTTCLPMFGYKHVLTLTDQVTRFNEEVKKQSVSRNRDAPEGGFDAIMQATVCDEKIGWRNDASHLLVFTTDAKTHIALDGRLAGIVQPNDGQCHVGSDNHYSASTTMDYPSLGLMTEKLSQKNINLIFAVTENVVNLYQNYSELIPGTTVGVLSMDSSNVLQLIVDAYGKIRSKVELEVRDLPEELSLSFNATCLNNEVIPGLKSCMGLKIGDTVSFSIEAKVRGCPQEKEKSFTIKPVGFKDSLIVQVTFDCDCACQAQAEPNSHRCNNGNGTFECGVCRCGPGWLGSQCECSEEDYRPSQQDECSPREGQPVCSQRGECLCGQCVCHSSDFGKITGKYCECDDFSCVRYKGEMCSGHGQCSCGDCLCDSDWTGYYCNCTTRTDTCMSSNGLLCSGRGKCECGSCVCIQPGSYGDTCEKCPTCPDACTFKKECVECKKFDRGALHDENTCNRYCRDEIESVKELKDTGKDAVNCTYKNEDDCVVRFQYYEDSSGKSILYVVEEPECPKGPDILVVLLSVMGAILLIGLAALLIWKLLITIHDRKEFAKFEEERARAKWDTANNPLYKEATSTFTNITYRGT
UniProt P06756, 891-1048 partner limits assumed: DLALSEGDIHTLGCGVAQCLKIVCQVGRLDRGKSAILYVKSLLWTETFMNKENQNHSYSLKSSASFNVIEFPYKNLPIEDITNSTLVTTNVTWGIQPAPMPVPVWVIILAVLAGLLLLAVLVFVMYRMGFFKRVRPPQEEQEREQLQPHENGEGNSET
UniProt P06756, 31-889 limits assumed: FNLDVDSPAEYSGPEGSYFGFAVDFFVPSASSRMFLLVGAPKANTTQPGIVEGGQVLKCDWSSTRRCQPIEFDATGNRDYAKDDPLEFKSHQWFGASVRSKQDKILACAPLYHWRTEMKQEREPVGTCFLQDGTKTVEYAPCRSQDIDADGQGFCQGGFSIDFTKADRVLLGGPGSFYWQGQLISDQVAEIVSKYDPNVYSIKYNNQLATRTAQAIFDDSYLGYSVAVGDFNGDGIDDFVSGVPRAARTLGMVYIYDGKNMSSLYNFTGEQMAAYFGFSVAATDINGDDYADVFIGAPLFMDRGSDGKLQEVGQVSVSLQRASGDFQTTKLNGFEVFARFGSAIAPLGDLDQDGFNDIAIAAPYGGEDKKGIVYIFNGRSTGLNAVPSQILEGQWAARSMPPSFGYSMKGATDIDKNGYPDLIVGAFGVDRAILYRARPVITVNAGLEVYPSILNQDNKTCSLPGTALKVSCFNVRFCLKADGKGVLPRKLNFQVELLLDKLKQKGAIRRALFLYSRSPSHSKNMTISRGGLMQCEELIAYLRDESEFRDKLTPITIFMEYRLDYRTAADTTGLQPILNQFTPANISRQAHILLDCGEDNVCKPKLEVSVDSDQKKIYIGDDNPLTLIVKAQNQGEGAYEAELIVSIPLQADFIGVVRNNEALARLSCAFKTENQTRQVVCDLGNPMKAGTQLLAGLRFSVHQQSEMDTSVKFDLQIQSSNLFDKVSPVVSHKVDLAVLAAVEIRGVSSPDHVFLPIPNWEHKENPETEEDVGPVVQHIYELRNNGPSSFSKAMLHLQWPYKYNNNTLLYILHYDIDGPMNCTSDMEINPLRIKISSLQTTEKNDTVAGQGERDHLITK

The target in the assay is T1, integrin αvβ3 (Homo sapiens, UniProt P05106+P06756).
T1 construct: SW480 cells, a human colon cancer cell line not expressing integrin β3; expressed in transfected cells; host or cells: SW480 cells (human colon cancer) stably expressing human integrin β3
Kind of assay: Inhibition of periostin-dependent adhesion of SW480 cells expressing integrin αvβ3. In kind it is cell-based. To be noted: SW480 cells expressing human integrin β3; immobilized recombinant human periostin; compounds at 0.001-1 μM; FIG. 6; read-out: 50% inhibition concentration (IC50 value) for cell adhesion inhibitory activity. The method, then:
For use in cell adhesion experiments, SW480 cells, a human colon cancer cell line not expressing integrin β3, were genetically engineered to stably express human integrin β3 (Nanri Y, et al. Am J Respir Cell Mol Biol. 62:204-216, 2020). The compounds shown in Table 1 were examined for their inhibitory activity against adhesion between integrin αvβ3 and periostin according to the following procedures. First, a 96-well plate was treated with 10 μg/mL recombinant human periostin (Bio-Techne) at 4 °C for 16 hours to immobilize periostin. The SW480 cells expressing integrin αvβ3 (5×10^4 cells) were reacted at room temperature for 15 minutes with the above compounds at 0.001, 0.01, 0.1 and 1 μM in serum-free DMEM (Dulbecco's Modified Eagle Medium) containing 0.5% bovine serum albumin and 0.25 mM MnCl2. A group receiving no compound was used as a control. The reacted cell suspensions were added to separate wells of the above human periostin-immobilized plate, and the plate was centrifuged at 10×g for 5 minutes and then cultured at 37 °C for 60 minutes. Then, after the adhered cells were washed to remove unbound cells, the adhered cells were fixed with 1% formaldehyde and stained with 0.5% crystal violet. The fixed and stained cells were solubilized with 0.2% Triton X-100 and measured for absorbance at 595 nm. […]

A value given as a limit tells only on which side of the number the result lay.

Turning to `N=C(N)Nc1cccc(C(=O)NCC(=O)NC(CC(=O)O)c2cc(Cl)cc(Cl)c2)c1` (stereo not shown) [SC-68448, 3-(3,5-Dichlorophenyl)-3-(2-(3-guanidinobenzamido)acetamido)propanoic acid], the IC50 is at most 20 nM.
